Measured values taken from ChEMBL document CHEMBL3399974, “Discovery and SAR of novel series of imidazopyrimidinones and dihydroimidazopyrimidinones as positive allosteric modulators of the metabotropic glutamate receptor 5 (mGlu5)” (Bioorg Med Chem Lett, 2015).

Test: Extraction ratio in rat hepatocytes
Assay type: ADME, cell-based, Hepatocyte
Conditions: read-out: ERH

## O=C1N(c2ccc(F)cc2)CCc2nc(COc3ccccc3)cn21
  hepatic extraction ratio: 0.43
